Assay results: US10206937B2, “Boronic acid derivatives and therapeutic uses thereof” (Qpex Biopharma, Inc., priority 2014, dated 2019)
Read-outs that look alike come from different tables or passages of the source.

By UniProt entry, the sequences of proteins in these tests, tags left out. Residues count along the entry.
UniProt C7C422, 29-270, looked up, species assumed: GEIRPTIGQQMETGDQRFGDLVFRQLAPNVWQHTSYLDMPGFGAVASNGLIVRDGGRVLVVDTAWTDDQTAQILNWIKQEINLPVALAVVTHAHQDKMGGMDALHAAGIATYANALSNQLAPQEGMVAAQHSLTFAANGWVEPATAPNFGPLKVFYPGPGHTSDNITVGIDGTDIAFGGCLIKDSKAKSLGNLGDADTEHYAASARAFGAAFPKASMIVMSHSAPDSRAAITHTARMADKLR

Columns and labels:
[1] = biological target: NDM-1 (Klebsiella pneumoniae, UniProt C7C422); type: biochemical
[2] = biological target: T1, VIM-1 (Pseudomonas aeruginosa, UniProt A0A0F7KYQ8); type: biochemical
T1 construct: made in house; host or cells: ECM6711 strain carrying pUCP24-VIM-1 plasmid; culture supernatant used unpurified

## EDTA [reference compound]
[1]; cleavage of biapenem (100 uM) by NDM-1, read-out: Ki, Biapenem
  Ki: 10 to 100 nM
[1]; cleavage of imipenem (100 uM) by NDM-1, read-out: Ki, Imipenem
  Ki: 10 to 100 nM
[1]; cleavage of meropenem (100 uM) by NDM-1, read-out: Ki, Meropenem
  Ki: 10 to 100 nM
[1]; cleavage of tebipenem (100 uM) by NDM-1, read-out: Ki, Tebipenem
  Ki: 10 to 100 nM
[2]
  IC50: < 1000 nM
